For the assay, the system named is supercoiled pBR322 plasmid DNA. Type of assay: biochemical.

As a reminder, the EC50 is the concentration at which the effect is half-maximal. A higher EC50 goes with a need for much substance. For the substance “N-phenyl 3-diazobenzamide tetrafluoroborate [Compound 9]”, a half-maximal response (EC50) required 289 nM.

Values taken from patent publication US20250170265A1 (priority 2023, published 2025).
